By UniProt entry, the sequences of proteins in these tests, tags left out. Residues count along the entry.
UniProt P08069, 741-1367 partner limits assumed: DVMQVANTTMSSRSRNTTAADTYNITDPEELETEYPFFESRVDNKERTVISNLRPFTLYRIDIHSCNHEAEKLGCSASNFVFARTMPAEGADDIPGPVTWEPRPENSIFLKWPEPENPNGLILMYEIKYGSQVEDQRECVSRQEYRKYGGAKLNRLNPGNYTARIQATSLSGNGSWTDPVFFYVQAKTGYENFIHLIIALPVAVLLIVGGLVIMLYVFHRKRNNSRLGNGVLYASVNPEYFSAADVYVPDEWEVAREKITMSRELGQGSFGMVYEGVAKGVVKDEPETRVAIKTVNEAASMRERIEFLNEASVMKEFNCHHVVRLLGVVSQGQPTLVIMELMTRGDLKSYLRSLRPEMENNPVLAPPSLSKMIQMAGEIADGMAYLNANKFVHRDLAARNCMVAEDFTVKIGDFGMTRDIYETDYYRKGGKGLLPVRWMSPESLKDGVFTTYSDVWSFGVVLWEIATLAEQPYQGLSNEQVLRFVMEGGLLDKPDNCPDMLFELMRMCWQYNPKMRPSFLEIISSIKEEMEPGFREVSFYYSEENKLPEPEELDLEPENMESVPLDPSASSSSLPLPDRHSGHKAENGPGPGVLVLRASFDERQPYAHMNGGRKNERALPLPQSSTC
UniProt P08069, 31-736 limits assumed: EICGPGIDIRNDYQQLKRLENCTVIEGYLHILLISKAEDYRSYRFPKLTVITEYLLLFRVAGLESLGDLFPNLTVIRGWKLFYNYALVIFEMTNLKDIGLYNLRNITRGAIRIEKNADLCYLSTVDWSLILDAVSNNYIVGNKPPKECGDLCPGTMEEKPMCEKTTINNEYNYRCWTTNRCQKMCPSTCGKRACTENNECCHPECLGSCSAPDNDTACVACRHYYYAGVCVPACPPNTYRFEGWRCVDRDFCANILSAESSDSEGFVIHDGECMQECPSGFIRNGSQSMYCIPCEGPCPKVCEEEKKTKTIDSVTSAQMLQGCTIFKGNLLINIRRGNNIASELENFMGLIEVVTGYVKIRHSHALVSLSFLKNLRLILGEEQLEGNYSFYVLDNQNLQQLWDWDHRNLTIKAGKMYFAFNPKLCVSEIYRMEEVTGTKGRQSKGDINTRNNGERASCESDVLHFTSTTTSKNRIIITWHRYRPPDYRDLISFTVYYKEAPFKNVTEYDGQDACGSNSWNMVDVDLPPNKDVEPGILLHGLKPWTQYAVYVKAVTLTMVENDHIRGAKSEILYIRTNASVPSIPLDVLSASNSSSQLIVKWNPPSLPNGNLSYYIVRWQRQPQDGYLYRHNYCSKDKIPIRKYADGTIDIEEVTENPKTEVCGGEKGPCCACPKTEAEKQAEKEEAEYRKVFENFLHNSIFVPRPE

According to US9624287B2, “O-linked carbohydrate-modified insulin analogues” (Case Western Reserve University, priority 2012, dated 2017):

Assays:
[1] = target: human Type 1 IGF receptor (IGF-1R) (Homo sapiens, UniProt P08069); assay: competitive displacement receptor-binding assay, IGF-1R; conditions: Table 1D; different preparation of receptor than in Tables 1A-1C; read-out: Dissociation Constant hIGF-1R
[2] = guanidine-induced denaturation monitored by circular dichroism; format: physicochemical; conditions: 25° C.

Substance: α-D-mannopyranoside-O^β-Thr^B27-β-D-glucopyranoside-O^β-Thr^B30-[Glu^B31, Glu^B32]-KP-insulin
- Kd [1]: 45.9 ± 8.95 nM
- ΔGu, free energy of unfolding (two-state model) ([2]; guanidine hydrochloride, pH 7.4, extrapolated to zero denaturant): 3.3 ± 0.1 kcal/mol
- Cmid, concentration of guanidine-HCl required to unfold 50% of the protein ([2]; pH 7.4): 4.8 ± 0.2 M
